Our source for the Activity values is ChEMBL document CHEMBL5346928, “Discovery of orally effective and safe GPR40 agonists by incorporating a chiral, rigid and polar sulfoxide into β-position to the carboxylic acid” (Eur J Med Chem, 2023).

Structures are written as SMILES. Activity calls are given as the source filed them. The rule behind the calls is not given here.

The target in the assay is T1, Free fatty acid receptor 4 (Homo sapiens) (UniProt Q5NUL3).
T1 sequence (whole entry): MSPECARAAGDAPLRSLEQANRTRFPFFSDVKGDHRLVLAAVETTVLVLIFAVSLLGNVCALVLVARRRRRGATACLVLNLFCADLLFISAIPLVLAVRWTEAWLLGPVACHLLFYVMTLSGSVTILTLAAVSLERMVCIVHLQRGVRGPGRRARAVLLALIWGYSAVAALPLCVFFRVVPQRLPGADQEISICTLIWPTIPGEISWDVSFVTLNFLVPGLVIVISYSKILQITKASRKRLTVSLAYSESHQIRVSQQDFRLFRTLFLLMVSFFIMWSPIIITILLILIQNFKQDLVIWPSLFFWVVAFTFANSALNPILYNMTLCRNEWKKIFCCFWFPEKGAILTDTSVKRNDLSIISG
In words: Agonist activity at human GPR120 expressed in HEK293 cells by Fluo4-AM dye based intracellular calcium flux assay. Format: functional, cell-based.

On to `Cc1cccc(C)c1-c1cccc(COc2ccc([S@@+]([O-])CC(=O)O)cc2)c1`, for which the result was inactive.
`Cc1cc(OCCCS(C)(=O)=O)cc(C)c1-c1cccc(COc2ccc([S@@+]([O-])CC(=O)O)cc2)c1`: the result was inactive.
